Experimental findings from ChEMBL document CHEMBL6153089, “Design, Synthesis, and Biological Evaluation of Thieno[3,2-d]pyrimidine Derivatives as the First Bifunctional PI3Kδ Isoform Selective/Bromodomain and Extra-Terminal Inhibitors” (J Med Chem, 2025) are described below.

The nature of assay [1]: Selectivity ratio of IC50 for inhibition of PI3Kbeta (unknown origin) to IC50 for inhibition of p110delta/p85alpha (unknown origin).
Assay [2] in a line: Selectivity ratio of IC50 for inhibition of p110alpha/p85alpha (unknown origin) to IC50 for inhibition of p110delta/p85alpha (unknown origin).
Assay [3] is described as follows: Selectivity ratio of IC50 for inhibition of PI3Kgamma (unknown origin) to IC50 for inhibition of p110delta/p85alpha (unknown origin).

Molecules are shown by their SMILES.

As for `Cn1cc(-c2nc(N3CCOCC3)c3sc(CN4CCC(C(C)(C)O)CC4)cc3n2)c2cc[nH]c2c1=O`, the Ratio IC50 in assay [1] turned out to be 42; in assay [2], 65; in assay [3] it was 8.2.
